Source: patent US20090028888A1, “Cancer Antigen Mage-A9 and Uses Thereof” (priority 2005, published 2009)

System: MAGE-A9 gene expression in bladder cancer cell lines
Assay: RT-PCR analysis of MAGE-A9 gene expression induction in bladder cancer cell lines
Settings: MGH-U3, 5637 and VMCUB-3, 0.5 μM Apicidin; for MAGE-A9 expression induction, HDAC inhibitor alone: 1 μM MS-275 or 2 mM 4-PB, 48 h; for level of MAGE-A9 mRNA expression, addition to 5-AZA-DC: cells previously treated for 48 hours with 1 μM 5-AZA-DC, 1 μM MS-275 or 2 mM 4-PB for last 48 hours

`O=C(O)CCCc1ccccc1` [4-PB, 4-phenylbutyrate] was tested, and the “MAGE-A9 expression induction, HDAC inhibitor alone” value was “did not induce” and the “level of MAGE-A9 mRNA expression, addition to 5-AZA-DC” value was “augmented considerably”.
`Nc1ccccc1NC(=O)c1ccc(CNC(=O)OCc2cccnc2)cc1` [MS-275] was tested, and the “MAGE-A9 expression induction, HDAC inhibitor alone” value was “did not induce” and the “level of MAGE-A9 mRNA expression, addition to 5-AZA-DC” value was “augmented considerably”.
